What was measured:
[1] = tested on: gastric cancer organoid GA6877B; assay: Gastric cancer organoid viability (CTG 3D), GA6877B; assay type: cell-based
Procedure: (§1) Day −1: Patient derived gastric cancer organoids (PDXOs) are sheared to uniform sizes and the required number of organoids are combined 1:1 with 50% Matrigel to produce the right size of the organoids to perform the screen.
(§2) Day 0: Organoid seeding • 1. Collect organoids from each well by adding 20 μl 100× Dispase solution to each well from a 6-well plate, which contains 2 ml of organoid medium. • 2. Put the plates back in the incubator, 37° C. for 30 min. • 3. Collect organoids from all wells and pipet through a pre-wet 100 μm filter into a 50 ml plastic tube. • 4. Once all wells have been filtered over 100 μm filters, filter the flow though over a pre-wet 20 μm filter. • 5. […]
(§3) • 10. Place screening plates back into the incubator before adding compounds and day 0 reading. […] One is for day 0 reading (TO) and the other for reading at the end point.
(§4) Day 0: Compounds treatment and Day 0 baseline CTG (cell titre glo) reading • 11. […] For day 0 reading plate, add 40 μL of CTG 3D per well and read luminescent signal on Envision plate reader.
(§5) Day 6: Endpoint CTG reading. • 1. Read assay plates for luminescent CTG signal at the end of the assays: add 40 μL of CTG 3D per well by Multidrop dispenser, mix the contents for 5 min on the plate shaker, and incubate the plates for 30 min at room temperature in dark. Read luminescent signal on Envision plate reader. […]

[2] = tested on: gastric cancer organoid GA0119B; assay: Gastric cancer organoid viability (CTG 3D), GA0119B; assay type: cell-based
Procedure: as §1, §2, §3, §4, §5

[3] = tested on: HER2 positive breast cancer cell line, BT474; assay: In vitro cytotoxicity, IncuCyte Sytox Green, BT474; assay type: cell-based; conditions: 50, 3.13 and 0.2 nM, ten days; ADC killing stated at 0.2 nM
Procedure: Cells were plated in 96 well plates at 10% confluency (8000 for BT474). […] Plates were imaged every four hours for ten days in the IncuCyte S3. Images for % phase (confluence) and green (Sytox Green) were collected and analysed using the IncuCyte software 2022A. Data are presented as green area normalised to phase area (μm^2) over time whilst cells are in log phase proliferation.
Trastuzumab was conjugated to NMT inhibitor 1 (ADO Example 8) and tested for its cytotoxic activity against a HER2 positive breast cancer cell line, BT474 in an in vitro assay. Cells were plated in 96 well plates at 10% confluency (8000 for BT474). The following day cells were treated with ADO Example 8 at 50 nM, 3.13 nM, and 0.2 nM and controls in 250 nM Sytox Green containing medium. Plates were imaged every four hours for ten days in the IncuCyte S3. Images for % phase (confluence) and green (Sytox Green) were collected and analysed using the IncuCyte software 2022A. Data are presented as green area normalised to phase area (μm^2) over time whilst cells are in log phase proliferation.

[4] = tested on: gastric cancer organoid GA6815B; assay: Gastric cancer organoid viability (CTG 3D), GA6815B; assay type: cell-based
Procedure: as §1, §2, §3, §4, §5

[5] = tested on: gastric cancer organoid GA2434B; assay: Gastric cancer organoid viability (CTG 3D), GA2434B; assay type: cell-based
Procedure: as §1, §2, §3, §4, §5

[6] = tested on: gastric cancer organoid GA3055B; assay: Gastric cancer organoid viability (CTG 3D), GA3055B; assay type: cell-based
Procedure: as §1, §2, §3, §4, §5

[7] = tested on: gastric cancer organoid GA0060B; assay: Gastric cancer organoid viability (CTG 3D), GA0060B; assay type: cell-based
Procedure: as §1, §2, §3, §4, §5

[8] = tested on: gastric cancer organoid GA0098B; assay: Gastric cancer organoid viability (CTG 3D), GA0098B; assay type: cell-based
Procedure: as §1, §2, §3, §4, §5

[9] = tested on: gastric cancer organoid GA3102B; assay: Gastric cancer organoid viability (CTG 3D), GA3102B; assay type: cell-based
Procedure: as §1, §2, §3, §4, §5

[10] = tested on: gastric cancer organoid GA0091B; assay: Gastric cancer organoid viability (CTG 3D), GA0091B; assay type: cell-based
Procedure: as §1, §2, §3, §4, §5

[11] = tested on: gastric cancer organoid GA6894B; assay: Gastric cancer organoid viability (CTG 3D), GA6894B; assay type: cell-based
Procedure: as §1, §2, §3, §4, §5

[12] = tested on: gastric cancer organoid GA6866B; assay: Gastric cancer organoid viability (CTG 3D), GA6866B; assay type: cell-based
Procedure: as §1, §2, §3, §4, §5

[13] = tested on: gastric cancer organoid GA0087B; assay: Gastric cancer organoid viability (CTG 3D), GA0087B; assay type: cell-based
Procedure: as §1, §2, §3, §4, §5

[14] = tested on: gastric cancer organoid GA6891B; assay: Gastric cancer organoid viability (CTG 3D), GA6891B; assay type: cell-based
Procedure: as §1, §2, §3, §4, §5

[15] = tested on: gastric cancer organoid GA6833B; assay: Gastric cancer organoid viability (CTG 3D), GA6833B; assay type: cell-based
Procedure: as §1, §2, §3, §4, §5

[16] = tested on: JIMT-1 human breast xenograft; assay: JIMT1 breast cancer xenograft model (Balb/c nude mice, ADC Example 1); assay type: in vivo, mouse
Procedure: In this study, 72 mice were inoculated subcutaneously in the right front flank region with 1×10^7 viable JIMT-1 tumour cells resuspended in Matrigel (1:1) on Study Day −15. When tumours reached a tumour volume of approximately 120-150 mm^3, 60 mice with the most similarly sized tumours were randomly assigned to 6 treatment groups on Study Day 0. […] The study was terminated on Study Day 58. The dosing regimen was as follows:
The body weight of all mice in each group was measured and recorded three times weekly throughout the duration of the study. Moreover, the tumour volume was measured (mm^3) and recorded using digital calipers three times weekly throughout the duration of the study. In particular, the length, width, and depth of the tumour were each measured and used to calculate tumour volume (mm^3). The results are shown in FIG. 58, FIG. 59, and FIG. 60.

[17] = tested on: gastric cancer organoid GA2109B; assay: Gastric cancer organoid viability (CTG 3D), GA2109B; assay type: cell-based
Procedure: as §1, §2, §3, §4, §5

[18] = tested on: gastric cancer organoid GA0429B; assay: Gastric cancer organoid viability (CTG 3D), GA0429B; assay type: cell-based
Procedure: as §1, §2, §3, §4, §5

[19] = tested on: BT474 breast cancer cells; assay: Orthotopic breast cancer xenograft model (BT474); assay type: in vivo, mouse; conditions: trastuzumab and ADC 2.5 and 5 mg/kg; NMT inhibitor 1 2 mg/kg
Procedure: NOD/SCID mice were implanted with estrogen pellets (17β-estradiol, 60 day release, 0.36 mg) subcutaneously in the right flank one day before the tumour inoculation. On day −8 each mouse was then inoculated in the right mammary fat pad with 1×10^7 viable BT474 breast cancer cells resuspended in 0.2 mL of Phosphate Buffered Saline mixed with matrigel (1:1). Mice were assigned to treatment groups when tumour volumes averaged 149.78 mm^3 on study day 0. […] The study was terminated on Study Day 35. […] Each group was comprised of 10 mice. Tumour volumes in mice were measured three times per week and tumour volume was calculated using the formula 0.5 (L×W^2). The mean tumour volumes (+SEM) for each study group at each measurement are shown in FIG. 1 and FIG. 2 plotted as Last Observation Carried Forward. Statistical analyses were carried out on tumour readings for Groups 1, 2, 3, 4 and 5 up to Study Day 23 (after this point >50% of the animals within one of the study groups were lost; Group 2) using two-way ANOVA, or a Mixed-Effects model was fitted when values were missing from groups (PRISM GraphPad Software Inc.). Statistical analysis of Group 6 was conducted until day 13 (at this point the study was terminated due to the significant loss of observed body weight). […]
During the study, body weights were measured three times weekly for all animals. […]

trastuzumab deruxtecan
Max_Inhibition [1]: 80.47% | Max_Inhibition [2]: 26.83% | cell killing of BT474 cells [3]: effectively killed BT474 cells but was less efficacious than ADC Example 8 | Max_Inhibition [4]: 63.4% | Max_Inhibition [5]: 21.96% | Max_Inhibition [6]: 32.59% | Max_Inhibition [7]: 36.69% | Max_Inhibition [8]: 8.49% | Max_Inhibition [9]: 90.24% | Max_Inhibition [10]: −4.07% | Max_Inhibition [11]: 44.79% | Max_Inhibition [12]: 85.3% | Max_Inhibition [13]: 42.94% | Max_Inhibition [14]: −4.87% | Max_Inhibition [15]: 30.23% | tumour volume compared to vehicle alone ([16]; 5 mg/kg IV on Study Days 0, 7, 28 and 35, agent alone): significantly decreased tumour volume | mice that completely responded (of 10) ([16]; 5 mg/kg IV, agent alone): no mice | Max_Inhibition [17]: 18.41% | Max_Inhibition [18]: 41.08%

trastuzumab: humanized anti-HER2 monoclonal antibody
Max_Inhibition [1]: 40.47% | Max_Inhibition [2]: 12.83% | Max_Inhibition [4]: 64.47% | Max_Inhibition [5]: 27.95% | Max_Inhibition [6]: 43.3% | Max_Inhibition [7]: 34.19% | body weights of mice [19]: did not differ significantly from the vehicle control | Max_Inhibition [8]: 15.3% | Max_Inhibition [9]: 13.75% | Max_Inhibition [10]: 17.54% | Max_Inhibition [11]: 28.1% | Max_Inhibition [12]: 62.62% | Max_Inhibition [13]: 35.31% | Max_Inhibition [14]: −1.19% | Max_Inhibition [15]: 32.44% | Max_Inhibition [17]: 34.63% | Max_Inhibition [18]: 7.66%
